Earlier results on one molecule are cited in US20180348222A1, “BUFADIENOLIDE FOR TREATMENT OF NON-SMALL CELL LUNG CANCER” (priority 2017, published 2018).

Read-outs that look alike come from different tables or passages of the source.

This data set concerns HCC827, A549 and H1975 cells. Particulars: cited from earlier work.

For `COc1cc2ncnc(Nc3ccc(F)c(Cl)c3)c2cc1OCCCN1CCOCC1` [Gefitinib, gefitinib], the Gefitinib sensitive result is “Sensitive” (A549), “Resistant” (H1975) and “Sensitive” (HCC827).
